We go through one compound from US20070142411A1, “Use of cyclooxygenase-2 selective inhibitors for the treatment of schizophrenic disorders” (priority 2003, published 2007).

Amino acid sequences for entries named in this document (tags omitted). Residues count along the entry.
UniProt P23219, 24-599: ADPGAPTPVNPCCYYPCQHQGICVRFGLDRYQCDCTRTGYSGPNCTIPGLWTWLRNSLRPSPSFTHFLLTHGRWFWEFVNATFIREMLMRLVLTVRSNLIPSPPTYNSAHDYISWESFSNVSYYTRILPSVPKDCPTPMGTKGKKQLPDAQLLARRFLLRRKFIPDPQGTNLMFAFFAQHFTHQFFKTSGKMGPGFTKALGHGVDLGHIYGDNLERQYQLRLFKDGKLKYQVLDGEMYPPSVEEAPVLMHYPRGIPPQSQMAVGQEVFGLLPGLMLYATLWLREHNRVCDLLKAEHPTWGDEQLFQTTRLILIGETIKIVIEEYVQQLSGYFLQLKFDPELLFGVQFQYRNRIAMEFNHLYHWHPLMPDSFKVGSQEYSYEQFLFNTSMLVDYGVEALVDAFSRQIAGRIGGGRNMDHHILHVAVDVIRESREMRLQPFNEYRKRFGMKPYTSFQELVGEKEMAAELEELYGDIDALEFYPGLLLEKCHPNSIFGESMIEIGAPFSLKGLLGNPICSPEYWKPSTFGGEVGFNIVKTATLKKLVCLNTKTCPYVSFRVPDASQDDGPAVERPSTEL

For the assay, the target named is T1, human COX-1 (Homo sapiens, UniProt P23219).
T1 construct: expressed in transfected cells; host or cells: COS cells (stably transfected)
Briefly: Inhibition of PGE2 release in COS cells stably transfected with human COX-1. The assay is classed as cell-based. The note with it: COS cells transfected with human COX-1, 30 μM arachidonic acid.

Compound `CS(=O)(=O)c1ccc(-c2c(-c3ccc(F)cc3)nn3nc(S(C)(=O)=O)ccc23)cc1` [2.4(iii), 2-(4-Fluoro-phenyl)-6-methanesulfonyl-3-(4-methanesulfonyl-phenyl)-pyrazolo[1,5-b]pyridazine] had an IC50 of more than 100 µM.
